The source of these data is patent publication US9018255B2, “Esters of (acyloxymethyl)acrylamide, a pharmaceutical composition containing them, and their use as inhibitors of the thioredoxin—thioredoxin reductase system” (Instytut Chemii Organicznej Polskiej Akademii Nauk, priority 2010, dated 2015).

Sequences of proteins named here, by UniProt entry; tags and fusion partners are left off. A change or cut given only in a name is not applied to a line headed by its entry.
UniProt P10599: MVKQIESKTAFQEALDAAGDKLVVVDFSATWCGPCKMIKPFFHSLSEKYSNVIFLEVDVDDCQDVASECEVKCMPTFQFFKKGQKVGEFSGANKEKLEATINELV

The target of the experiment is human recombinant thioredoxin (Homo sapiens (Human), UniProt P10599). In words: Thioredoxin activity, insulin reduction / DTNB assay with recombinant enzymes. The settings on record: for IC50: 37° C., 30 min, 0.25 μM thioredoxin, 0.325 μM thioredoxin reductase, read-out: IC50 of thioredoxin inhibition; for thioredoxin IC50, times lower than for PX-12: ratio to PX-12. The experiment is classed as biochemical. As to the method: The method of determining thioredoxin activity is based on the reduction of insulin by thioredoxin. Thioredoxin is reconstituted is by thioredoxin reductase, with NADPH. The resulting free thiol —SH groups react with 5,5′-dithiobis-2-nitrobenzoic acid (DTNB). The termination of the reaction results in the formation of a […] colour. The intensity of colouration is determined spectrophotometrically at 412 nm and this corresponds to the number of reduced sulfahydryl groups. The reaction was performed at 37° C. over 30 min. in a buffer containing 50 mM Tris-HCl and 20 mM EDTA at a pH of 7.6. The substrate concentrations used were: 0.25 μM human recombinant thioredoxin and 0.325 μM rat recombinant thioredoxin reductase (IMCO Corporation Ltd AB, Sweden) and 316 μM of insulin, 0.8 μM NADPH, 8 mM DTNB (Sigma Aldrich).

`C=C(COC(=O)c1c(C(F)(F)F)cccc1C(F)(F)F)C(=O)NC(CC(C)C)C(=O)NCC(=O)OCC` (racemic) [Compound 3a, 2-((1-((2-ethoxy-2-oxoethyl)amino)-4-methyl-1-oxopentan-2-yl)carbamoyl)allyl 2,6-bis(trifluoromethyl)benzoate]: the IC50 was determined as 3.2 µM and the “thioredoxin IC50, times lower than for PX-12” value is recorded as “about 5 times”. For the same compound, the “selectivity as thioredoxin inhibitor in comparison to PX-12” value (from Tables 1, 2 and 3) is on record as “considerably more selective”.
As for `C=C(COC(=O)c1c(C(F)(F)F)cccc1C(F)(F)F)C(=O)N[C@H](CC(C)C)C(=O)NCC(=O)OCC` [Compound D-3a, (R)-2-((1-((2-ethoxy-2-oxoethyl)amino)-4-methyl-1-oxopentan-2-yl)carbamoyl)allyl 2,6-bis(trifluoromethyl)benzoate], the IC50 is 3.5 µM and the “thioredoxin IC50, times lower than for PX-12” value is listed as “about 5 times”.
The like results for `C=C(COC(=O)c1c(C(F)(F)F)cccc1C(F)(F)F)C(=O)N[C@@H](CC(C)C)C(=O)NCC(=O)OCC` [Compound L-3a, (S)-2-((1-((2-ethoxy-2-oxoethyl)amino)-4-methyl-1-oxopentan-2-yl)carbamoilo)allyl 2,6-bis(trifluoromethyl)benzoate] were, in that order, 2.8 µM and “about 5 times”.
